# MITF TRPM1 inh: MITF TRPM1 promoter inhibition in SK-MEL-5 cells; 330,000 tested, 0.83% active; SK-MEL-5 TRPM1 promoter luciferase, 24 h; inhibition, % at 12.5 µM;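 active = mean inhibition across replicates of 60% or more, whatever share of single replicates reaches that level; inconclusive = some that reach 60%, reason not given; inactive = mean inhibition across replicates below 60%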
# Wnt bcat act: Wnt/beta-catenin pathway activation. Wnt/beta-catenin reporter cell assay, activator, plate reader. activation, % at 9.35 µM. 300,000 tested, 1.2% active; in the data active = activation above about 30%, passing the limit was not always enough; inconclusive = no clear call, values can overlap the other calls;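 note: 0% = neutral control wells and 100% = positive control wells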
# UUG fidelity: modulators of start codon recognition fidelity in yeast; AID 602363; hit rate 0.13% among 350,000; activity score, % at 18.7 µM; S. cerevisiae UUG-firefly luciferase reporter, luminescence/redox ratio;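 active = replicate mean at a twofold rise or more, about +100% in these data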;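 note: firefly luciferase made from a UUG start codon reports start codon fidelity; reporter light over untreated wells divided by growth signal over untreated wells; some hits fall short of that in this replicate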
# PGC1a acetyl inh: modulators of PGC1a acetylation; U2OS PGC1a acetylation, AlphaScreen anti-acetyl-lysine; with virally co-expressed GCN5 acetyltransferase; inhibition, % at 15.6 µM; 350,000 tested, 0.17% active; AID 651687;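 active = every replicate shows inhibition of at least 40%; inconclusive = mean inhibition at least 40% but some replicate below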;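 note: 0% = neutral control wells and 100% = positive control wells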
# miR-122 sensor: blocks miR-122 activity in Huh7 sensor cells; Huh7 miR-122 Renilla luciferase sensor, 48 h; neutral wells = 0, positive control = 100; activation (reporter increase), % at 12.5 µM; 340,000 tested, 0.3% active; AID 602342;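 active = mean replicate activation score at least 90 and every replicate individually at or above 90; inconclusive = only one of the two criteria met; inactive = neither criterion met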;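 note: higher luciferase means less miR-122 activity so hits act as miR-122 inhibitors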
# MITF TRPM1 HTS: increases MITF-driven TRPM1 promoter luciferase signal; SK-MEL-5 TRPM1-promoter luciferase, 24 h; % of positive control, neutral wells = 0; activation, % at 12.5 µM; 300,000 tested, 0.75% active;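 active = mean activation of at least 80% with every replicate also reaching 80%; inconclusive = mean reaches 80% but some replicate falls short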;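 note: 0% = neutral control wells and 100% = parthenolide positive control wells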
# The depositor's hits bear a star; ? = inconclusive; . = no result; [ ] = another dose, or the depositor's remark. In the library only some 2.1% were active in any assay of this set; here they are far more common.
# Letter code: A = MITF TRPM1 inh; B = Wnt bcat act; C = UUG fidelity; D = PGC1a acetyl inh; E = miR-122 sensor; F = MITF TRPM1 HTS
C[C@H](CO)N1C[C@H](C)[C@@H](CN(C)C(=O)Nc2ccc(C(F)(F)F)cc2)Oc2ccc(NS(C)(=O)=O)cc2C1=O
  A = .	B = .	C = 5	D = 8	E = 0[16.7 µM]	F = .
C[C@@H]1CN([C@@H](C)CO)C(=O)c2cc(C#CC3CC3)cnc2O[C@@H]1CN(C)Cc1ccccn1
  A = .	B = .	C = -9	D = -8	E = -1[16.7 µM]	F = .
CCNC(=O)COc1ccc(-c2ccccc2)cc1
  A = -43	B = 40*	C = -6	D = 3	E = -3	F = .
Cc1cccc(Cc2cnc(NC(=O)C3=NCCN3)s2)c1
  A = 10	B = 1	C = .	D = 16	E = 2	F = -11
Cc1cccc(Cc2cnc(NC(=O)c3ccc(C)o3)s2)c1
  A = -84	B = 51*	C = -31	D = 5	E = 17	F = 88*
CC(Oc1ccc(Br)cc1)C(=O)Nc1nc(-c2ccccn2)cs1 (stereo not given)
  A = 67*	B = -3	C = -43	D = .	E = 16	F = -64
O=[N+]([O-])c1ccc(N/N=C\c2cccnc2)nc1
  A = -96	B = 9	C = .	D = .	E = .	F = 99*
O=[N+]([O-])c1ccc(NN=Cc2cccc(O)c2)nc1
  A = -63	B = -3	C = -20	D = -21	E = .	F = 72
COCC(=O)Nc1ccc2c(c1)OC[C@@H](C)N(Cc1cncnc1)C[C@H](C)[C@@H](OC)CN(C)C2=O
  A = .	B = .	C = .	D = -39	E = -3[16.7 µM]	F = .
COc1ccccc1-c1ccc2c(c1)O[C@@H](CN(C)S(=O)(=O)c1ccc(F)cc1)[C@@H](C)CN([C@@H](C)CO)S2(=O)=O
  A = .	B = .	C = .	D = -9	E = -36[16.7 µM]	F = .

# Reprinted from the part before: 2 entries; new compounds follow.
# Letter code: A = MITF TRPM1 inh; B = Wnt bcat act; C = UUG fidelity; D = PGC1a acetyl inh; E = miR-122 sensor; F = MITF TRPM1 HTS
COCC(=O)Nc1ccc2c(c1)OC[C@@H](C)N(Cc1cncnc1)C[C@H](C)[C@@H](OC)CN(C)C2=O
  A = .	B = .	C = .	D = -39	E = -3[16.7 µM]	F = .
COc1ccccc1-c1ccc2c(c1)O[C@@H](CN(C)S(=O)(=O)c1ccc(F)cc1)[C@@H](C)CN([C@@H](C)CO)S2(=O)=O
  A = .	B = .	C = .	D = -9	E = -36[16.7 µM]	F = .
CC1C/C(=C\c2cccnc2)C(=O)/C(=C/c2cccnc2)C1 (stereo not given)
  A = 97*	B = .	C = .	D = .	E = .	F = -97
O=C1/C(=C\c2cccnc2)Sc2ccccc21
  A = -4	B = -2	C = .	D = .	E = .	F = 4
COc1ccc(S(=O)(=O)Nc2ccc3c(c2)C(=O)N([C@H](C)CO)C[C@H](C)[C@H](CN(C)S(=O)(=O)c2ccc(C)cc2)OCCCC[C@H](C)O3)cc1
  A = .	B = .	C = -5	D = 1	E = -10[16.7 µM]	F = .
COCCn1c(SCC(=O)Nc2ccccc2OC)nnc1-c1ccco1
  A = 23	B = 0	C = -11	D = 3	E = 4	F = -20
COCCn1c(C)nnc1SCC(=O)Nc1ccccc1[N+](=O)[O-]
  A = 9	B = 51*	C = .	D = .	E = .	F = -8
C[C@H]1CN([C@@H](C)CO)C(=O)c2cc(NC(=O)C3CC3)ccc2O[C@H]1CN(C)Cc1ccc(C(F)(F)F)cc1
  A = .	B = .	C = 20	D = 5	E = 0[16.7 µM]	F = .
Cc1cc(-c2nnc(-c3cccc(Cl)c3)o2)no1
  A = -27	B = 53*	C = -16	D = 0	E = -6	F = .
Cc1cc(NC(=O)CSc2nnc(-c3cccc(Cl)c3)o2)no1
  A = -7	B = 1	C = -19	D = -1	E = 5	F = 8
C[C@@H]1CN([C@@H](C)CO)C(=O)c2cc(NC(=O)Cn3cnnn3)ccc2O[C@H]1CN(C)C(=O)Nc1ccc(F)cc1
  A = .	B = .	C = 6	D = 12	E = -2[16.7 µM]	F = .
O=C(Cn1cc(/C=C\[N+](=O)[O-])c2ccccc21)Nc1ccccc1
  A = 91*	B = 1	C = .	D = 25	E = 16	F = -90

# Some entries already given with just miR-122 sensor and MITF TRPM1 HTS.
SMILES,miR-122 sensor,MITF TRPM1 HTS
CC1C/C(=C\c2cccnc2)C(=O)/C(=C/c2cccnc2)C1 (stereo not given),.,-97
O=C1/C(=C\c2cccnc2)Sc2ccccc21,.,4
COc1ccc(S(=O)(=O)Nc2ccc3c(c2)C(=O)N([C@H](C)CO)C[C@H](C)[C@H](CN(C)S(=O)(=O)c2ccc(C)cc2)OCCCC[C@H](C)O3)cc1,-10[16.7 µM],.
COCCn1c(SCC(=O)Nc2ccccc2OC)nnc1-c1ccco1,4,-20

# The list continues.
# Letter code: A = MITF TRPM1 inh; B = Wnt bcat act; C = UUG fidelity; D = PGC1a acetyl inh; E = miR-122 sensor; F = MITF TRPM1 HTS
O=[N+]([O-])/C=C/c1cn(Cc2ccccc2)c2ccccc12
  A = 19	B = .	C = .	D = 11	E = 4	F = -19
O=C(O)Cn1cc(/C=C/[N+](=O)[O-])c2ccccc21
  A = 3	B = 1	C = .	D = 8	E = .	F = 4
N#Cc1ccccc1Cn1cc(/C=C/[N+](=O)[O-])c2ccccc21
  A = 91*	B = 18	C = -14	D = .	E = -6	F = -91
CC(C)(C)c1ccc(C(=O)CS(=O)(=O)c2ccccc2)cc1
  A = -101	B = .	C = -51	D = -11	E = -6	F = 108*
Cc1ccc(S(=O)(=O)CC(=O)c2ccccc2)cc1
  A = -15	B = .	C = .	D = -10	E = 12	F = 15
COc1cccc(S(=O)(=O)Nc2ccc3c(c2)[C@H]2C[C@@H](CC(=O)N[C@@H](C)c4ccccc4)O[C@@H](CO)[C@H]2O3)c1
  A = .	B = .	C = -4	D = -2	E = -5[16.7 µM]	F = .
COc1cc(/C=C/C(=O)c2ccc([N+](=O)[O-])o2)ccc1O
  A = 85*	B = -13	C = -17	D = .	E = .	F = -85
O=C(/C=C/c1cccc(Cl)c1)c1ccc([N+](=O)[O-])o1
  A = 98*	B = -25	C = -14	D = .	E = .	F = -96
COc1ccc(/C=C/C(=O)c2ccc([N+](=O)[O-])o2)cc1OC
  A = .	B = -28	C = .	D = .	E = .	F = .
NC(=O)[C@H]1CC2(CC(c3cccc(NC(=O)c4ccccc4)c3)=NO2)CN1C(=O)[C@H]1CCC(=O)N1 (stereo not given in full)
  A = 5	B = 53*	C = -3	D = 8	E = -3	F = -5
O=C(CSCC(=O)Nc1ccccc1)N/N=C/c1c(O)ccc2ccccc12
  A = 69*	B = -8	C = -27	D = -9	E = -1	F = -68
Cn1nccc1C(=O)N/N=C/c1c(O)ccc2ccccc12
  A = 72*	B = 3	C = -12	D = .	E = 6	F = -70
O=C(NN=Cc1c(O)ccc2ccccc12)c1ccncc1
  A = 75*	B = -2	C = .	D = 3	E = 9	F = .
Cn1cc(C(=O)N/N=C/c2c(O)ccc3ccccc23)ccc1=O
  A = 69*	B = -5	C = .	D = 2	E = .	F = -69
O=C(N/N=C/c1c(O)ccc2ccccc12)Nc1ccccc1
  A = .	B = 4	C = .	D = .	E = .	F = .
O=C(Nc1ccc(Cl)c(Cl)c1)N[C@H]1CC[C@H](CCn2cc(C3CC3)nn2)O[C@H]1CO
  A = .	B = .	C = 15	D = 5	E = .	F = .
O=C(Oc1c(CN2CCOCC2)cc(Cl)c2cccnc12)c1ccccc1F
  A = 68*	B = 19	C = .	D = .	E = .	F = -68
O=[N+]([O-])c1cc(CN2CCN(c3ccccc3)CC2)c(O)c2ncccc12
  A = 75*	B = -5	C = .	D = 21	E = 5	F = -74
Oc1c(CN2CCc3ccccc3C2)cc(Cl)c2cccnc12
  A = 75*	B = .	C = -52	D = 12	E = 20	F = -74
O=C(Oc1c(CN2CCOCC2)cc(Cl)c2cccnc12)c1ccccc1
  A = 64*	B = -2	C = .	D = 4	E = 2	F = -64

# Remaining list, next part:
# The line under a structure holds: MITF TRPM1 inh	Wnt bcat act	UUG fidelity	PGC1a acetyl inh	miR-122 sensor	MITF TRPM1 HTS
> COc1cc(OC)cc(C(=O)Oc2c(CN3CCOCC3)cc(Cl)c3cccnc23)c1
  1	-1	-5	9	1	0
> CN1CCN(Cc2cc(COCc3ccccc3)c3cccnc3c2O)CC1
  79*	-5	16	28	24	-79
> Oc1c(CN2CCCCC2)cc(Br)c2cccnc12
  75*	.	-29	1	.	-78
> Oc1ccc(CN2CCN(Cc3ccccc3)CC2)c2cccnc12
  28	6	-27	0	-16	.
> Oc1c(Cl)cc(CN2CCOCC2)c2cccnc12
  55	-23	-41	?	-21	-55
> CO[C@@H]1CN(C)C(=O)c2cc(NC(C)=O)ccc2OC[C@H](C)N(Cc2cccnc2)C[C@H]1C
  .	.	.	1	6[16.7 µM]	.
> CSc1ccc(CNc2ccc(Cl)cc2)cc1
  -104	-1	-28	-8	-1	101*
> Cc1ccc(NCSc2ccc(Cl)cc2)cc1
  -62	16	.	-6	-14	50
> COc1ccccc1OCC(=O)Nc1ccc(Cl)cc1
  -44	19	1	.	5	52
> NC(=O)c1ccccc1OCC(=O)Nc1ccc(Cl)c(Cl)c1
  -64	40*	.	.	.	64
> O=C(COc1cc(Cl)ccc1Cl)Nc1ccc2c(c1)CCC2
  -26	6	.	.	.	28
> NC(=O)c1ccccc1OCC(=O)Nc1ccc2c(c1)CCC2
  -87	27	1	14	-5	93*
> O=C(c1ccncc1)N1CC(=O)N2[C@H](C1)[C@@H](c1ccc(-c3ccccc3F)cc1)[C@@H]2CO
  .	.	.	-1	.	.

# From PubChem BioAssay
